{"source": "patent US8168233B2", "about": "(Amylin Pharmaceuticals, Inc., priority 2002, dated 2012)", "key": {"[1]": {"test": "Solubility and stability characteristics compared to human amylin", "format": "physicochemical"}, "[2]": {"test": "Amylin activity in vivo in treated test animals (hyperlactemia followed by hyperglycemia)", "conditions": "e.g., provoking marked hyperlactemia followed by hyperglycemia"}, "[3]": {"test": "Adsorption onto glass container in liquid form", "format": "physicochemical"}}, "data": [{"compound": "CC[C@H](C)[C@H](NC(=O)[C@@H]1CCCN1C(=O)CNC(=O)[C@H](Cc1ccccc1)NC(=O)[C@H](CC(N)=O)NC(=O)[C@H](CC(N)=O)NC(=O)[C@H](CO)NC(=O)[C@H](CO)NC(=O)[C@H](CCCNC(=N)N)NC(=O)[C@@H](NC(=O)[C@H](CC(C)C)NC(=O)[C@H](Cc1ccccc1)NC(=O)[C@H](CC(N)=O)NC(=O)[C@H](C)NC(=O)[C@H](CC(C)C)NC(=O)[C@H](CCCNC(=N)N)NC(=O)[C@H](CCC(N)=O)NC(=O)[C@@H](NC(=O)[C@H](C)NC(=O)[C@@H]1CSSC[C@H](NC(=O)[C@@H](N)CCCCN)C(=O)N[C@@H](CC(N)=O)C(=O)N[C@@H]([C@@H](C)O)C(=O)N[C@@H](C)C(=O)N[C@@H]([C@@H](C)O)C(=O)N1)[C@@H](C)O)C(C)C)C(=O)N[C@@H](CC(C)C)C(=O)N1CCC[C@H]1C(=O)N[C@@H](CO)C(=O)N[C@H](C(=O)N[C@@H](CC(N)=O)C(=O)N[C@H](C(=O)NCC(=O)N[C@@H](CO)C(=O)N[C@@H](CC(N)=O)C(=O)N[C@H](C(=O)N[C@@H](Cc1ccc(O)cc1)C(N)=O)[C@@H](C)O)C(C)C)[C@@H](C)O", "note": "[^18Arg^25,28Pro-h-amylin]", "values": [{"measurement": "solubility and stability characteristics", "setting": "[1]", "value": "more desirable"}]}, {"compound": "CC[C@H](C)[C@H](NC(=O)[C@@H]1CCCN1C(=O)CNC(=O)[C@H](Cc1ccccc1)NC(=O)[C@H](CC(N)=O)NC(=O)[C@H](CC(N)=O)NC(=O)[C@H](CO)NC(=O)[C@H](CO)NC(=O)[C@H](Cc1c[nH]cn1)NC(=O)[C@@H](NC(=O)[C@H](CC(C)C)NC(=O)[C@H](Cc1ccccc1)NC(=O)[C@H](CC(N)=O)NC(=O)[C@H](C)NC(=O)[C@H](CC(C)C)NC(=O)[C@H](CCCNC(=N)N)NC(=O)[C@H](CCC(N)=O)NC(=O)[C@@H](NC(=O)[C@H](C)NC(=O)[C@@H]1CSSC[C@H](NC(=O)[C@@H](N)CCCCN)C(=O)N[C@@H](CC(N)=O)C(=O)N[C@@H]([C@@H](C)O)C(=O)N[C@@H](C)C(=O)N[C@@H]([C@@H](C)O)C(=O)N1)[C@@H](C)O)C(C)C)C(=O)N[C@@H](CC(C)C)C(=O)N1CCC[C@H]1C(=O)N1CCC[C@H]1C(=O)N[C@H](C(=O)N[C@@H](CC(N)=O)C(=O)N[C@H](C(=O)NCC(=O)N[C@@H](CO)C(=O)N[C@@H](CC(N)=O)C(=O)N[C@H](C(=O)N[C@@H](Cc1ccc(O)cc1)C(N)=O)[C@@H](C)O)C(C)C)[C@@H](C)O", "note": "[^25,28,29Pro-h-amylin]", "values": [{"measurement": "amylin activity in vivo", "setting": "[2]", "value": "show amylin activity in vivo"}, {"measurement": "tendency to adsorb onto the glass in a glass container", "setting": "[3]", "value": "does not have a tendency to adsorb onto the glass"}, {"measurement": "solubility and stability characteristics", "setting": "[1]", "value": "more desirable"}]}, {"compound": "CC(C)C[C@H](NC(=O)[C@H](CCCNC(=N)N)NC(=O)[C@H](CCC(N)=O)NC(=O)[C@@H](NC(=O)[C@H](C)NC(=O)[C@@H]1CSSC[C@H](NC(=O)[C@@H](N)CCCCN)C(=O)N[C@@H](CC(N)=O)C(=O)N[C@@H]([C@@H](C)O)C(=O)N[C@@H](C)C(=O)N[C@@H]([C@@H](C)O)C(=O)N1)[C@@H](C)O)C(=O)N[C@@H](C)C(=O)N[C@@H](CC(N)=O)C(=O)N[C@@H](Cc1ccccc1)C(=O)N[C@@H](CC(C)C)C(=O)N[C@H](C(=O)N[C@@H](Cc1c[nH]cn1)C(=O)N[C@@H](CO)C(=O)N[C@@H](CO)C(=O)N[C@@H](CC(N)=O)C(=O)N[C@@H](CC(N)=O)C(=O)N[C@@H](Cc1ccccc1)C(=O)NCC(=O)N1CCC[C@H]1C(=O)N[C@H](C(=O)N[C@@H](CC(C)C)C(=O)N1CCC[C@H]1C(=O)N1CCC[C@H]1C(=O)N[C@H](C(=O)N[C@@H](CC(N)=O)C(=O)N[C@H](C(=O)NCC(=O)N[C@@H](CO)C(=O)N[C@@H](CC(N)=O)C(=O)N[C@H](C(=O)N[C@@H](Cc1ccc(O)cc1)C(N)=O)[C@@H](C)O)C(C)C)[C@@H](C)O)C(C)C)C(C)C", "note": "[^25Pro^26Val^28,29Pro-h-amylin]", "values": [{"measurement": "solubility and stability characteristics", "setting": "[1]", "value": "more desirable"}]}]}
